Results published in ChEMBL document CHEMBL4411287, “Discovery and optimization of a series of 3-substituted indazole derivatives as multi-target kinase inhibitors for the treatment of lung squamous cell carcinoma” (Eur J Med Chem, 2019).

Biological target: T1, Discoidin domain-containing receptor 2 (Homo sapiens, UniProt Q16832)
T1 sequence (Q16832 whole entry): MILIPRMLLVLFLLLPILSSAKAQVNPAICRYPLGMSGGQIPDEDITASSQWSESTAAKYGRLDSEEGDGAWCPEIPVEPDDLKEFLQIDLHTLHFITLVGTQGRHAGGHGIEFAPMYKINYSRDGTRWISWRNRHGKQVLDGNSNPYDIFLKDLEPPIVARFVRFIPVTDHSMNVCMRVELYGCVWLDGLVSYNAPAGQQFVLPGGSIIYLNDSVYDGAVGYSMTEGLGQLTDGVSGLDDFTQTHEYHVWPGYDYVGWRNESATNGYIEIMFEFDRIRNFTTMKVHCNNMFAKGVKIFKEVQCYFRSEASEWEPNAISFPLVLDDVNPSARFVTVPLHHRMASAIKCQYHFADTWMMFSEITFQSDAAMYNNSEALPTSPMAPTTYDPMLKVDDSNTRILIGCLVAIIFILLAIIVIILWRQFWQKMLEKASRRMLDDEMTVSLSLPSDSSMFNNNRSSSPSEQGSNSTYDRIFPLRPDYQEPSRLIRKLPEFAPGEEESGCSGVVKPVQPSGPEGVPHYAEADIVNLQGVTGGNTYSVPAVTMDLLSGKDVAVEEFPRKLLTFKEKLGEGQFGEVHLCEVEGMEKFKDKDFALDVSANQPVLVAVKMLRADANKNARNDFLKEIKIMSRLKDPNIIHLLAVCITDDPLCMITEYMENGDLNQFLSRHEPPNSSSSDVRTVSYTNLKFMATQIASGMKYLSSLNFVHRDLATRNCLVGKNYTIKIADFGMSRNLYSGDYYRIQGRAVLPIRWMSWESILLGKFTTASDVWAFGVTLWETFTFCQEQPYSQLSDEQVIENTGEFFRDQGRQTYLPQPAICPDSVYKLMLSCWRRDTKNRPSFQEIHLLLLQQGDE
Assay: Inhibition of DDR2 (unknown origin) using poly (Glu, Tyr) 4:1 substrate after 60 mins by ELISA

With Cc1ccc(C(=O)Nc2cccc(C(F)(F)F)c2)cc1-c1ccc2cn[nH]c2c1 the IC50 was 1.5 nM.
